Results on 1 compound are retold here after ChEMBL document CHEMBL1145122, “Structure-based design of novel guanidine/benzamidine mimics: potent and orally bioavailable factor Xa inhibitors as novel anticoagulants” (J Med Chem, 2003).

Protein sequences, listed by entry. Tags and fused reporters are not part of them. Residues count along the entry.
UniProt P00742, 41-179 limits assumed: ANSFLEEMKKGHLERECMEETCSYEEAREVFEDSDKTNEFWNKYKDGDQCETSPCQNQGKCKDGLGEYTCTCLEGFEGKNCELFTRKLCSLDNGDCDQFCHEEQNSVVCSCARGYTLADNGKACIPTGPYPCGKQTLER
UniProt P00742, 235-488 limits assumed: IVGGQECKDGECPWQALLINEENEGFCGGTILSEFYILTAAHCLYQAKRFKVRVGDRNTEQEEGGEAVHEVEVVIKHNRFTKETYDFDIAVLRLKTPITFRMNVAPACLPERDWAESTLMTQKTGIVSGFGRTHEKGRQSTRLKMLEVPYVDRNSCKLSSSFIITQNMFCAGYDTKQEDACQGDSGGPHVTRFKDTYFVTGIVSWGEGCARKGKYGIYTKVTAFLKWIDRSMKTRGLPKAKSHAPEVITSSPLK

pKi: −log10 of the molar value.

The assay concerns the target Coagulation factor X (Homo sapiens, UniProt P00742). Description: Inhibitory activity against Coagulation factor X (FXa).

By pKi is commonly meant −log10 of the Ki, conventionally taken in molar units. As to `Cc1cc(C(=O)Nc2ccc(-c3ccccc3S(N)(=O)=O)cc2)n(C2CCCNC2)n1` (stereo unspecified), the pKi is 4.68.
